From paper PMC3152598 (Biochemical pharmacology, 2011)

Sequences of proteins named here, by UniProt entry; tags and fusion partners are left off.
UniProt P0DMS8, whole entry: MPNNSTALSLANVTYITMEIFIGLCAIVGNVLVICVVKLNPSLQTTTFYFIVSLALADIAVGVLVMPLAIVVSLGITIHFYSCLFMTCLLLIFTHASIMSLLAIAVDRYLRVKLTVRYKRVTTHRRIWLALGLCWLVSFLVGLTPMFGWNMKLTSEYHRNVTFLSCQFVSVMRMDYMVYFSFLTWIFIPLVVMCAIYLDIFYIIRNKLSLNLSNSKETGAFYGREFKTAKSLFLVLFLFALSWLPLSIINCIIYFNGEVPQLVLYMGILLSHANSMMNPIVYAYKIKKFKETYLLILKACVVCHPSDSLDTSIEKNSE

What was measured:
Conditions in all cases: agonist alone; normalized to NECA = 100%
[1] = biological target: T1, human A3 AR (Homo sapiens, UniProt P0DMS8); assay: Cyclic AMP accumulation assay
[2] = biological target: T1, human A3 AR; assay: Membrane hyperpolarization
[3] = biological target: T1, human A3 AR
[4] = biological target: T1, human A3 AR; remark: listed apart in the source

CCNC(=O)[C@H]1O[C@@H](n2cnc3c(N)ncnc32)[C@H](O)[C@@H]1O [NECA, adenosine-5′-N-ethyluronamide, reference compound]
100%: cyclic AMP Emax [1] | hyperpolarization Emax [2] | Ca2+ Emax [3] | β-arrestin2 Emax [4]
